Values joined by “and” are separate entries in the source; they are usually repeats but may differ in a detail not shown here. Equal values may be shown once.
Target: human KOR (Homo sapiens, UniProt P41145, D266A)
Experiment: BRET assay, KOR-Rluc and Nb6-mVenus: Nb6 binding / agonist-induced dissociation
Format: cell-based

B1: Nb6-mVenus (VHH)
VHH: QVQLQESGGGLVQAGESLRLSCAASGTIFRLYDMGWYRRVSGNQRELVASITSGGSTKYGDSVKGRFTISRDNAKNTVYLQMSSLKPEDTAVYYCNAEYRTGIWEELLDGWGQGTQVTVSS
notes: as the chain of m2, nanobody chain of PDB 6VI4; source: HEK 293T, co-transfected, in live cells; not shown: mVenus, C-terminal, kept
**Q.** With B1 as the molecule, how does the “Net BRET, KOR mutations with Nb6, source data Figure 3b” value read?
**A.** 0.1115 and 0.1134

Source: paper PMC7052193, “Nanobody-enabled monitoring of kappa opioid receptor states” (Nature Communications, 2020)
